Test [1] concerns the target Alpha-2C adrenergic receptor (Rattus norvegicus, UniProt P22086).
The target in test [2] is Muscarinic acetylcholine receptor M3 (Homo sapiens, UniProt P20309).
Test [3] concerns the target Muscarinic acetylcholine receptor M1 (Homo sapiens, UniProt P11229).
In test [4] the target is Muscarinic acetylcholine receptor M3 (Rattus norvegicus, UniProt P08483).
Test [5] concerns the target 5-hydroxytryptamine receptor 2A (Rattus norvegicus, UniProt P14842).

Protein sequences, listed by entry. Tags and fused reporters are not part of them. Lines headed by an entry give the natural chain unless they say otherwise; changes in a name come on top.
UniProt P22086, whole entry: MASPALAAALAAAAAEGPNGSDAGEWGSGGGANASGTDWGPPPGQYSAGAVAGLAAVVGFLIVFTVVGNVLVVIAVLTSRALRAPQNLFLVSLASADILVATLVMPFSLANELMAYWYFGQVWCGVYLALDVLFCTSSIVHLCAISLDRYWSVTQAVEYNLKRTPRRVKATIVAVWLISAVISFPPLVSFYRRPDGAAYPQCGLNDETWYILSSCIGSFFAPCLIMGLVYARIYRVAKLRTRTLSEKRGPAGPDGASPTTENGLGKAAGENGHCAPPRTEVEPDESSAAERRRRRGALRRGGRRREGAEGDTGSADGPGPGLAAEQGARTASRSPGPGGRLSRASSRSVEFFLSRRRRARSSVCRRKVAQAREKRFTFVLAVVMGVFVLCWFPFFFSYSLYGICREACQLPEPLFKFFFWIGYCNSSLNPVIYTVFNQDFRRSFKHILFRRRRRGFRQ
UniProt P20309, whole entry: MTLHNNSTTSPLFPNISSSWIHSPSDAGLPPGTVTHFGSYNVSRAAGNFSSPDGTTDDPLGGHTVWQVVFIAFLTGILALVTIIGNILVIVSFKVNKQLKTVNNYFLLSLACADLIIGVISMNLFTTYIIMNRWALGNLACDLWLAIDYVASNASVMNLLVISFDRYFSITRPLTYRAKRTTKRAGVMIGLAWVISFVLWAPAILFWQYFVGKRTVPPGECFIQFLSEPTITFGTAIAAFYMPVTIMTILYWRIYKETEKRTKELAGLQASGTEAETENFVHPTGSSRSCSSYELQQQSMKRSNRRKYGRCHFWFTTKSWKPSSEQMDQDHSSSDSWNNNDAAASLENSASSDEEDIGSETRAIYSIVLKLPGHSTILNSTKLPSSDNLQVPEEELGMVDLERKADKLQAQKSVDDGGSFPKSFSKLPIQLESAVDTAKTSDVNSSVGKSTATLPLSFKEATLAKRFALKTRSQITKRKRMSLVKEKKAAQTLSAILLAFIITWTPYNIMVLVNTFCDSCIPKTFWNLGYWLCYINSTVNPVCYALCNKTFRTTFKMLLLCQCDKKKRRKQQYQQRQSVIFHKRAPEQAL
UniProt P11229: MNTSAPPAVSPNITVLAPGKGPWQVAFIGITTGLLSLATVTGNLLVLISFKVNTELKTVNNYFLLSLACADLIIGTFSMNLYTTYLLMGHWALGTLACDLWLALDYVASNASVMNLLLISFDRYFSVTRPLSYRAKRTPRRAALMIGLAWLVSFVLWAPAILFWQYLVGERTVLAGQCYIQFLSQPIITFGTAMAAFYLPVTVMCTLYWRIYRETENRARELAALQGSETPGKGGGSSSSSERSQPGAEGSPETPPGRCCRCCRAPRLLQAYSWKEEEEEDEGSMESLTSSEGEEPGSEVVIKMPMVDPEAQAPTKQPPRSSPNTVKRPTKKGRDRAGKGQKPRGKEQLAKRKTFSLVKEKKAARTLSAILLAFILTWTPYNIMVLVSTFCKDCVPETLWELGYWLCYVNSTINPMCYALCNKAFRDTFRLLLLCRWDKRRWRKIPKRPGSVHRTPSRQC
UniProt P08483, whole entry: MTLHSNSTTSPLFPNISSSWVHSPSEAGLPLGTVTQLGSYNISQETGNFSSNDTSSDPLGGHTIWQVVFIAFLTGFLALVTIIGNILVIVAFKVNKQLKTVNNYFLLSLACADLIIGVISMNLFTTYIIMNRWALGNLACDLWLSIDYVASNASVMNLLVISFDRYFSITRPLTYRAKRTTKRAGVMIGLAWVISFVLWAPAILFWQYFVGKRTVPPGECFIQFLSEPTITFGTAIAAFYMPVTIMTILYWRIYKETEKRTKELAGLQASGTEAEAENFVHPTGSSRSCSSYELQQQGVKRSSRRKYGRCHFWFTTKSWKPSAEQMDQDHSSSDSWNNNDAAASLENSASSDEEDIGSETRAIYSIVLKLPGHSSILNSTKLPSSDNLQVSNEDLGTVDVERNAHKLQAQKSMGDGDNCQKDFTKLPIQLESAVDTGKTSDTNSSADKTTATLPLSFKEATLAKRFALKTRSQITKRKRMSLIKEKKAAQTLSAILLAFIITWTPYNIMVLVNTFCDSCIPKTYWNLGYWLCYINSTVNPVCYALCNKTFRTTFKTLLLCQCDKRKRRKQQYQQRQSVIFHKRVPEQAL
UniProt P14842, whole entry: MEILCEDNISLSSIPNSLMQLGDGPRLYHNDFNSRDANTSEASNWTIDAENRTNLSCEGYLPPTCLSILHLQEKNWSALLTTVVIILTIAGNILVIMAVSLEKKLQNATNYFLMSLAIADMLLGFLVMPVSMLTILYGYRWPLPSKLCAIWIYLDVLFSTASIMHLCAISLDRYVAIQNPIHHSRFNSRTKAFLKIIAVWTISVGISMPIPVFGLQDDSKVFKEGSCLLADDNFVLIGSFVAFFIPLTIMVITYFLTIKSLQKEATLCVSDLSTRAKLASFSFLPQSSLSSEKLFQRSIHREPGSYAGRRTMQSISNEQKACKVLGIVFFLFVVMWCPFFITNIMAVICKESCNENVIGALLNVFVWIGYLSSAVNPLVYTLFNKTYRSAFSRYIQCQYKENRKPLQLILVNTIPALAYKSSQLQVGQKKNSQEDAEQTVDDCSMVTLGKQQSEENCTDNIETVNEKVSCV

`Cc1nc2n(c(=O)c1CCN1CCC(c3noc4cc(F)ccc34)CC1)CCCC2` [3-{2-[4-(6-Fluoro-benzo[d]isoxazol-3-yl)-piperidin-1-yl]-ethyl}-2-methyl-6,7,8,9-tetrahydro-pyrido[1,2-a]pyrimidin-4-one(risperidone)] registered an inhibition constant (Ki) in test [1] of 3 nM.
On to `CN1CCN(C2=c3ccccc3=Nc3ccc(Cl)cc3N2)CC1` [6-chloro-10-(4-methylpiperazin-1-yl)-2,9-diazatricyclo[9.4.0.0^{3,8}]pentadeca-1,3(8),4,6,10,12,14-heptaene], for which the Ki stood at 7 nM in test [2], 1.4 nM in test [3] and 14 nM in test [4].
With `Cc1cc2c(s1)=Nc1ccccc1NC=2N1CCN(C)CC1` [CAS_132539-06-1], the Ki was determined as 4 nM in test [5] and 25 nM in test [4].
